Results as given in ChEMBL document CHEMBL5321247, “Discovery of NXT-10796, an orally active, intestinally restricted EP4 agonist prodrug for the treatment of inflammatory bowel disease” (Bioorg Med Chem Lett, 2023).

Columns and labels:
[1] = system: Mus musculus; experiment: In vivo agonist activity at EP4 in po dosed C57BL/6J mouse assessed as increase in renin level in plasma at 1 to 5 mg/kg, po measured after 2 hrs; format: functional, organism-based; settings: dose 1-5 mg/kg
[2] = system: Mus musculus; experiment: In vivo agonist activity at EP4 in C57BL/6J mouse assessed as increase in Ccl5 expression in colon at 1 to 5 mg/kg, po administered for 3 days by qPCR analysis; format: functional, organism-based; settings: dose 1-5 mg/kg, time 3.0 day

SMILES: O=C(O)CCCCCCN1C(=O)CC[C@@H]1/C=C/[C@@H](O)Cc1ccccc1
- Activity [1]: Active
- Activity [2]: Active

The source made the active and inactive calls. The rule behind the calls is not given here.
